The text below walks through data of ChEMBL document CHEMBL1135050, “Design and synthesis of 4,5-disubstituted-thiophene-2-amidines as potent urokinase inhibitors” (Bioorg Med Chem Lett, 2002).

As usually defined, the Ki is the dissociation constant of the complex between target and ligand, obtained from inhibition or displacement. A high value points to a looser hold on the target.

This assay addresses Urokinase-type plasminogen activator (Homo sapiens, UniProt P00749). Briefly: Inhibition of Human kidney cell urokinase. It counts as cell-based.

The structures appear in SMILES notation.

`CSc1sc(C(=N)N)cc1-c1nc(-c2ccccc2)cs1` yielded a Ki of 0.101 µM.

In turn, `COc1ccc(-c2csc(-c3cc(C(=N)N)sc3C)n2)cc1OC` gave a Ki of 0.169 µM.

Turning to `C[S+]([O-])c1sc(C(=N)N)cc1-c1nc(-c2ccc(Cl)cc2)cs1` (stereo not drawn), the inhibition constant (Ki) is 1.42 µM.
